Results on 2 molecules are retold here after ChEMBL document CHEMBL5380862, “Unsymmetrical Phosphodiesters as GPR84 Antagonists with High Blood Exposure for the Treatment of Lung Inflammation” (J Med Chem, 2023).

Chains of the proteins cited; added tags and fusions are not shown. Lines headed by an entry give the natural chain unless they say otherwise; changes in a name come on top.
UniProt Q8CIM5: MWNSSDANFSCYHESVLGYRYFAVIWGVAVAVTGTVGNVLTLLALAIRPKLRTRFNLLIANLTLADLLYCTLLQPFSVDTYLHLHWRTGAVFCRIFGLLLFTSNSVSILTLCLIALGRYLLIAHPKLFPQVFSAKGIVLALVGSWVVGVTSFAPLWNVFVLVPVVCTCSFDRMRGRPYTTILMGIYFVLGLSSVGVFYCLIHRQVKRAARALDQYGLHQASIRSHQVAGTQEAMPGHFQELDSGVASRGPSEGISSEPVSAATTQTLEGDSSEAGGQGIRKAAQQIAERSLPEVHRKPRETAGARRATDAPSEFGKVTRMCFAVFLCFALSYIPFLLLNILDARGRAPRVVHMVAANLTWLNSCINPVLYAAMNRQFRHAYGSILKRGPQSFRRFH
UniProt O14842, whole entry: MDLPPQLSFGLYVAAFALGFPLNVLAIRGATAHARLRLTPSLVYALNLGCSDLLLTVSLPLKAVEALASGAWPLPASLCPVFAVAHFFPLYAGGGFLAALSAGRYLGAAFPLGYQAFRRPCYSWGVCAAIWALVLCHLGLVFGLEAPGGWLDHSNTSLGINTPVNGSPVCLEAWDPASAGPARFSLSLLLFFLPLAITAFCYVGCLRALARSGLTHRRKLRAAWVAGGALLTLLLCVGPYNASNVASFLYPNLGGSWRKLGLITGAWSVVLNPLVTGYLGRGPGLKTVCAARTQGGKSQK
UniProt P41145: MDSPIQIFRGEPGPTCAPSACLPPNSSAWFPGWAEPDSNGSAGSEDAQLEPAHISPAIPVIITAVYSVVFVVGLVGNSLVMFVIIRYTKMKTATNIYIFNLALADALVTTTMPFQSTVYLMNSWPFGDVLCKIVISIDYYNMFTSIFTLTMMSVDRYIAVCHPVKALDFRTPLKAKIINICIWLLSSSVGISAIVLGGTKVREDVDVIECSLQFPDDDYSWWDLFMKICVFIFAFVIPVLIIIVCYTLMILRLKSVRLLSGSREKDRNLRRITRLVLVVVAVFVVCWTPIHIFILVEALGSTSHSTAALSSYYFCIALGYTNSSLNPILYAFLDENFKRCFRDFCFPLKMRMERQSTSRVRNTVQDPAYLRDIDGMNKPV
UniProt P41143, whole entry: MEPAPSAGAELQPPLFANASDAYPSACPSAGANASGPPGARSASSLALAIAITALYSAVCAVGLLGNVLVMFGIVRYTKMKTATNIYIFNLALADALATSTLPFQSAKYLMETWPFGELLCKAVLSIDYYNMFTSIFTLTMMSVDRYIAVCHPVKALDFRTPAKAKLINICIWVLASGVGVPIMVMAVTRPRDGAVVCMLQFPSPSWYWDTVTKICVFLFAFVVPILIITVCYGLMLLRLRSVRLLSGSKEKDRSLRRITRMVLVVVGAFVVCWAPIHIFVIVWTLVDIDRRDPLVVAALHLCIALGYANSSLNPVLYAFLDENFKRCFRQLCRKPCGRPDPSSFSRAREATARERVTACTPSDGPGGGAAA
UniProt P08588, whole entry, looked up: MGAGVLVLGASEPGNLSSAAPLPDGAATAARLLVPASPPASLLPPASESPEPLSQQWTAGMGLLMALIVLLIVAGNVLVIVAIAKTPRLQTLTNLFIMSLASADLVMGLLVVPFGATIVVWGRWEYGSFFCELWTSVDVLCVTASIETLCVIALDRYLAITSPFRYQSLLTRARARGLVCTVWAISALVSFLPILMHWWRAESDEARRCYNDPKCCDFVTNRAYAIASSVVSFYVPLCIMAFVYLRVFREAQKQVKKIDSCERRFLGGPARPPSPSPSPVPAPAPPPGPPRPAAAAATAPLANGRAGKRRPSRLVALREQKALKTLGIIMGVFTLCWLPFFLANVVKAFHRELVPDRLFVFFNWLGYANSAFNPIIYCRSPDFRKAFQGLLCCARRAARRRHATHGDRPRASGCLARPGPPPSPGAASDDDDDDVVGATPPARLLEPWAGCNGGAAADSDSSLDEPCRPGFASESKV
UniProt P13945: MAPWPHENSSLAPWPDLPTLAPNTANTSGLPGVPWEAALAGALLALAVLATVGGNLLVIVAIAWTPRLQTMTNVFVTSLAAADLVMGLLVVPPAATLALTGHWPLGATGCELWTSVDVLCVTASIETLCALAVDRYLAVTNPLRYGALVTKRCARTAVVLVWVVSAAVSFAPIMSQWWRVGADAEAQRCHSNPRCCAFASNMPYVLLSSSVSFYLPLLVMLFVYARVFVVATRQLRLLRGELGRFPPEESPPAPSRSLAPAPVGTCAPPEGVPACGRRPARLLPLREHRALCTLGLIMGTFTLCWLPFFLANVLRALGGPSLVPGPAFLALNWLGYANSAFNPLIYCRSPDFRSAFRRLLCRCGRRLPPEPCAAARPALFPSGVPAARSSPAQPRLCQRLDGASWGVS
UniProt P21728, whole entry: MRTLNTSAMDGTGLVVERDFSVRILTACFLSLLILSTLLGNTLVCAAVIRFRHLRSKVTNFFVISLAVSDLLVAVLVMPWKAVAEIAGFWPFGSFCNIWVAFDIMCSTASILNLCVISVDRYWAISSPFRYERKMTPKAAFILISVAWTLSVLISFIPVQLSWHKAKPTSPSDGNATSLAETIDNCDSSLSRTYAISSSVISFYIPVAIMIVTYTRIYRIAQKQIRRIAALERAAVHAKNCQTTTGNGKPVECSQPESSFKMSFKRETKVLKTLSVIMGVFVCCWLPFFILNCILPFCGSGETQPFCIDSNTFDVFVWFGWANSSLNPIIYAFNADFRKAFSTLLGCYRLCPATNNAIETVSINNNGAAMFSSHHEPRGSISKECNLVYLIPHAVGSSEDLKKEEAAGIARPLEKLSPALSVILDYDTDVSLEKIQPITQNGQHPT

The target in assay [1] is G-protein coupled receptor 84 (Mus musculus) (UniProt Q8CIM5). As to the kind of experiment: Antagonist activity at mouse GPR84 expressed in HEK293 cells co-expressing Galpha16 assessed as inhibition of 6-OAU induced calcium response incubated for 10 mins by calcium mobilization assay. The class given is functional, cell-based. The following applies: filed as antagonist.

The target in assay [2] is Free fatty acid receptor 1 (Homo sapiens) (UniProt O14842). Description: Antagonist activity at GPR40 (unknown origin) expressed in HEK293 cells co-expressing Galpha16 assessed as inhibition of TAK-875 induced calcium response upto 100 uM incubated for 10 mins by calcium mobilization assay. The class given is functional, cell-based. In general terms: Calcium flux is commonly read through the fluorescence of an indicator in the cells.

Assay [3] has as its target T1, Free fatty acid receptor 3 (Homo sapiens) (UniProt O14843).
T1 sequence (whole entry): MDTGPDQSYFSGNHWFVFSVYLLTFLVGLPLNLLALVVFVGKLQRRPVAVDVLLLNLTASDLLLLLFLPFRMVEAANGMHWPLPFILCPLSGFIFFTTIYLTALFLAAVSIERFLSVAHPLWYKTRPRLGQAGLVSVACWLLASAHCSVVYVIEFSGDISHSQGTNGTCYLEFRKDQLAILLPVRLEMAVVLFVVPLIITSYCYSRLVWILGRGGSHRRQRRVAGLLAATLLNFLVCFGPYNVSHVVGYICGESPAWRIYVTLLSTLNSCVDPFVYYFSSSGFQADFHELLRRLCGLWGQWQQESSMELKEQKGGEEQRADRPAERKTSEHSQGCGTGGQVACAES
As to the kind of experiment: Antagonist activity at GPR41 (unknown origin) expressed in HEK293 cells co-expressing Galpha16 assessed as inhibition of sodium butyrate induced calcium response upto 100 uM incubated for 10 mins by calcium mobilization assay. The class given is functional, cell-based.

Assay [4] deals with T2, Glucose-dependent insulinotropic receptor (Homo sapiens) (UniProt Q8TDV5).
T2 sequence (whole entry): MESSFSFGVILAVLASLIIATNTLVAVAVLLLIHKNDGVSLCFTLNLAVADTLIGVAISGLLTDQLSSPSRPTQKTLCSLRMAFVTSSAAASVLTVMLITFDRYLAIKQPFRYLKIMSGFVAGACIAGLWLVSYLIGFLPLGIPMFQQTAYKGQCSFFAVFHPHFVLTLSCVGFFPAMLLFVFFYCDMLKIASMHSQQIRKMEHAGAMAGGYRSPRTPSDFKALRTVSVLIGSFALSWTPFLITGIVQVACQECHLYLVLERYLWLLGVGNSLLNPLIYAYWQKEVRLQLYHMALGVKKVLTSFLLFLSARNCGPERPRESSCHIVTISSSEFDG
As to the kind of experiment: Antagonist activity at GPR119 (unknown origin) expressed in HEK293 cells assessed as inhibition of AR231453 induced […] upto 100 uM pre-incubated for 10 mins followed by AR231453 addition and measured after 15 mins by cAMP detection assay. The class given is functional, cell-based. The following applies: time 25.0 min.

Assay [5] concerns the target T3, Free fatty acid receptor 4 (Homo sapiens) (UniProt Q5NUL3).
T3 sequence (whole entry): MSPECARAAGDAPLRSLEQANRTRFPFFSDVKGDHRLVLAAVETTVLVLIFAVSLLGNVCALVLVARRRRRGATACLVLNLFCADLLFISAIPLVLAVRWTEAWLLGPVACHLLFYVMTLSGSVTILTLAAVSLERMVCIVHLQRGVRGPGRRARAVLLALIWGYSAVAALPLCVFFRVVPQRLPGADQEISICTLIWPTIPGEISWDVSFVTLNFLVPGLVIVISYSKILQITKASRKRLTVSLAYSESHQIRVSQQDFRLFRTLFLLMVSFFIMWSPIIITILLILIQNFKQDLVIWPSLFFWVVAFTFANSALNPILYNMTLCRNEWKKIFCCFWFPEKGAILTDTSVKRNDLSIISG
Description: Antagonist activity at GPR120 (unknown origin) expressed in HEK293 cells co-expressing Galpha16 assessed as inhibition of TUG-981 induced calcium response upto 100 uM incubated for 10 mins by calcium mobilization assay. The class given is functional, cell-based.

The target in assay [6] is Kappa-type opioid receptor (Homo sapiens) (UniProt P41145). Description: Antagonist activity at KOR (unknown origin) expressed in HEK293 cells co-expressing Galpha16 assessed as inhibition of U50488 induced calcium response upto 100 uM incubated for 10 mins by calcium mobilization assay. The class given is functional, cell-based.
The target in assay [7] is Delta-type opioid receptor (Homo sapiens) (UniProt P41143). Description: Antagonist activity at DOR (unknown origin) expressed in CHO-K1 cells co-expressing Galpha16 assessed as inhibition of DPDPE induced calcium response upto 100 uM incubated for 10 mins by calcium mobilization assay. The class given is functional, cell-based.
For assay [8], the target named is T4, Alpha-1A adrenergic receptor (Homo sapiens) (UniProt P35348).
T4 sequence (whole entry): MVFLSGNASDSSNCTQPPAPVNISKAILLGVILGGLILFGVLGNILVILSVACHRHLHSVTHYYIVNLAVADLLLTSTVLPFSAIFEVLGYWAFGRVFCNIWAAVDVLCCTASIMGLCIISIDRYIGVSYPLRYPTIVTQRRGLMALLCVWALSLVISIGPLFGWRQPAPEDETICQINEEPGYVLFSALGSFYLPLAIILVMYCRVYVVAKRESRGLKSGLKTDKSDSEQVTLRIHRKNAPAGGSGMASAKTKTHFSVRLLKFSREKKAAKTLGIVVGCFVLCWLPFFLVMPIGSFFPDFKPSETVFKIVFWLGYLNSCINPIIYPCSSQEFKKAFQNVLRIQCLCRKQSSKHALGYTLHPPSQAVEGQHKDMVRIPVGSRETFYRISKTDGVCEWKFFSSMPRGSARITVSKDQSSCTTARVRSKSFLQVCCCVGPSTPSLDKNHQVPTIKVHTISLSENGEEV
As to the kind of experiment: Antagonist activity at ARalpha1A (unknown origin) expressed in HEK293 cells co-expressing Galpha16 assessed as inhibition of Phenylephrine induced calcium response upto 100 uM incubated for 10 mins by calcium mobilization assay. The class given is functional, cell-based.

Assay [9] addresses Beta-1 adrenergic receptor (Homo sapiens) (UniProt P08588). Description: Antagonist activity at ARbeta1 (unknown origin) expressed in HEK293 cells co-expressing Galpha16 assessed as inhibition of Isoproterenol induced calcium response upto 100 uM incubated for 10 mins by calcium mobilization assay. The class given is functional, cell-based.
Assay [10] has as its target Beta-2 adrenergic receptor (Homo sapiens) (UniProt P07550). As to the kind of experiment: Antagonist activity at ARbeta2 (unknown origin) expressed in HEK293 cells co-expressing Galpha16 assessed as inhibition of Isoproterenol induced calcium response upto 100 uM incubated for 10 mins by calcium mobilization assay. The class given is functional, cell-based.
The target of assay [11] is Beta-3 adrenergic receptor (Homo sapiens) (UniProt P13945). Description: Antagonist activity at ARbeta3 (unknown origin) expressed in HEK293 cells co-expressing Galpha16 assessed as inhibition of Isoproterenol induced calcium response upto 100 uM incubated for 10 mins by calcium mobilization assay. The class given is functional, cell-based.
Assay [12] deals with D(1A) dopamine receptor (Homo sapiens) (UniProt P21728). Description: Antagonist activity at DRD1 (unknown origin) expressed in HEK293 cells co-expressing Galpha16 assessed as inhibition of dopamine induced calcium response upto 100 uM incubated for 10 mins by calcium mobilization assay. The class given is functional, cell-based.
Assay [13] has as its target G-protein coupled receptor 84 (Mus musculus) (UniProt Q8CIM5). The following applies: HEK293, filed as antagonist, dose 30-300 nM, time 10.0 min.
The target is the same in assay [14]. The following applies: HEK293, filed as antagonist, dose 30-300 nM, time 10.0 min. The source holds these as a separate data set.

Active and inactive are the calls of the source. The calls are words filed in the database; no cut-off is given here.

On to `O=c1nc(OC[C@@H]2COCCO2)cc2n1CCc1cc(C#CC3CC3)ccc1-2`, for which, in assay [1], the inhibition result was “Active”.
Consider `COc1cccc2c1Sc1ccccc1C=C2OP(=O)(O)O[C@@H]1C(C)(C)[C@@H]2CC[C@@]1(C)C2`, for which the inhibition result in [1] was “Active”. Moreover, the inhibition result in [2], in assay [3], in assay [4], in assay [5], in [6] and in assay [7] was “inactive” each time. The inhibition entry in assay [8], in assay [9], in assay [10], in [11] and in assay [12] was “inactive” throughout. Further, the inhibition result in assay [13] and in assay [14] was “Dose-Dependent Effect” throughout.
